Measurements reported in paper PMC3390922 (The Journal of Neuroscience, 2010).

Sequences of proteins named here, by UniProt entry; tags and fusion partners are left off.
UniProt Q61327, whole entry: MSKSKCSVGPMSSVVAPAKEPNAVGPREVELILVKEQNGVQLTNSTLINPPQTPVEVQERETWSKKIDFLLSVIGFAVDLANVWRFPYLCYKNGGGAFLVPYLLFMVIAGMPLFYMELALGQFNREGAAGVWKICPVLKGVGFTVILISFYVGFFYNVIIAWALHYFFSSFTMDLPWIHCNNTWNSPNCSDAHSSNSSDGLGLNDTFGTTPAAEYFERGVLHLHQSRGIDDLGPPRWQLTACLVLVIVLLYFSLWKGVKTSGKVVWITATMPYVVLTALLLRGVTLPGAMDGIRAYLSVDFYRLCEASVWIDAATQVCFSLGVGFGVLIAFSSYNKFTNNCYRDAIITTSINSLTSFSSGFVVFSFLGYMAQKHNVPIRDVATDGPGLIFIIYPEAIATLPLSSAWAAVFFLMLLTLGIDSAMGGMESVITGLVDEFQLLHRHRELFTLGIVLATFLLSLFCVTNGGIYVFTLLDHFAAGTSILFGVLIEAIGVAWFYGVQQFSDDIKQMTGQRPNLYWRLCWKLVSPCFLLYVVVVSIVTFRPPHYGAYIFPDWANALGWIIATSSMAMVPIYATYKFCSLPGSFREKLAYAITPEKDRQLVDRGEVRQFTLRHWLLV

Target: dopamine transporter (DAT) (Mus musculus, UniProt Q61327)
Assay: biochemical
Assay type: binding

OC1(c2ccc(Cl)cc2)c2ccccc2C2=NCCN21 (stereo not shown) [[^3H]-mazindol]
Kd: ~25 nM
